Compound activity deposited in PubChem BioAssay by National Center for Advancing Translational Sciences (NCATS).
Giardia killer – Small Molecules that selectively kill Giardia lamblia: qHTS; Giardia lamblia trophozoite viability; activity change, % at 7.66 µM, hits read low; actives 0.15% (n = 340,000); AID 540267, 2011; in the data active = activity change below about -80%; inconclusive = between about -30% and that limit;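 note: parasites exposed to compound for two days anaerobically before the ATP read; % is set by controls: 0 for no effect and ±100 for the full control effect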
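Each well holds 100 Giardia trophozoites and compound. After two days (48 hrs) at 37 deg C in anaerobic conditions, ATP is quantified by luminescence.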
Rango release inh – qHTS Assay for Inhibitors of RanGTP induced Rango (Ran-regulated importin-beta cargo) - Importin beta complex dissociation. actives 0.071% (n = 340,000). AID 540253, 2011. Biochemical FRET Rango-importin beta, RanGTP-induced dissociation. Potency, µM (doses to about 46.1 µM), inactives show top-dose activity change, negative = inhibition; note: potency is the fitted concentration of half-maximal effect; % of control where 0% means no effect; nearly all actives have a fitted effect of over 45% in size
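Quantitative HTS using a FRET biosensor: 0.1 uM Rango, 0.25 uM importin beta, 0.6 uM Ran, 2 mM GTP, 0.2 uM RCC1 final, PBS with DTT, Tween-20 and BSA. Post-read taken 45 min after Ran addition.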
CCT modulator – High-Throughput Screening for Modulators of Cytosolic Chaperonin Activity; AID 651819, 2012; activity change, % (concentration not given with the values), hits read low; purified chaperonin ATPase assay, HTRF ADP detection, 30 min; actives 0.3% (n = 360,000); in the data active = activity change below about -30%; note: % is set by controls: 0 for no effect and ±100 for the full control effect
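We incubate TRiC, 40 or 20 nM final, with library compounds at 76 uM and 10 uM ATP for 30 min at 37 °C. ADP formed is detected with Transcreener HTRF reagents after 30 min at room temperature.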
Rango-impB inh – qHTS Assay for Inhibitors of Rango (Ran-regulated importin-beta cargo) - Importin beta complex formation; actives 0.031% (n = 340,000); AID 540263, 2011; Potency, µM (titrated, usually from 92.2 µM), inactives show top-dose inhibition of complex formation; Rango CFP/YFP FRET sensor + importin beta, 45 min;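 note: potency is the fitted concentration of half-maximal effect; 0% = DMSO wells and 100% = buffer wells lacking importin beta; nearly all actives have a fitted effect of over 15% in size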
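FRET biosensor (snurportin 1 IBB flanked by EYFP and cerulean), 50 nM, with compound 5 min, then 0.125 microM importin beta in PBS, 1 mM DTT, 0.02% Tween-20, 0.1% BSA. CFP/YFP ratio read after 45 min at room temperature; pre-read flags interference.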
Mm-Cpn inhibitor – Inhibitors of TCP-1 ring complex (TRiC) of Methanococcus maripaludis (MmCpn): qHTS. AID 504842, 2011. Potency, µM (series often up to 76.9 µM), without a hit: top-dose activity, negative = inhibition, most hits filed as inhibitors. purified Mm-Cpn ATPase, ADP Transcreener TR-FRET. actives 0.031% (n = 330,000); active = well fitted inhibition curve with a large enough effect; inconclusive = small, poorly fitted or top-dose-only effect; note: potency is the fitted concentration of half-maximal effect; % is set by controls: 0 for no effect and ±100 for the full control effect; nearly all actives have a fitted effect of over 80% in size
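Purified archaeal chaperonin (25 nM final) was preincubated with compound for 10 min at 37°C, then ATP (10 uM final) was added for 30 min at 37°C in Tris pH 7.4/KCl/MgCl2/DTT buffer. ADP was quantified by HTRF Transcreener TR-FRET.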
The depositor's hits bear a star; u = inconclusive; x = no result given; [ ] = another dose, or the depositor's remark. Shown are actives, neighbours in structure and some others; about 0.53% of the full set was active somewhere. Unless noted, calls come from the whole dose curve.

1. Cc1ccc(C)c(S(=O)(=O)N2CCNCC2)c1
2. CCOC(=O)C1(C/C(C)=N/NC(N)=O)CC(C)OC1=O (configuration not stated)
3. CCCCCOCC1CC(C/C(C)=N/NC(N)=O)(C(=O)OCC)C(=O)O1 (configuration not stated)
4. Cn1c([N+](=O)[O-])cnc1N1CCN(c2nncs2)C1=O
5. CN(CC(=O)Nc1ccc(Cl)c(C(F)(F)F)c1)C(=O)c1ccc2c(c1)OCCO2
6. CN(CC(=O)Nc1ccc(Cl)c(C(F)(F)F)c1)C(=O)C1CC(=O)N(c2ccc3c(c2)OCCO3)C1 (configuration not stated)
7. O=C(Nc1ccncc1)C1C(=O)c2ccccc2N(Cc2ccccc2)C1=O (configuration not stated)
8. CC(C)Sc1nc2c(cnn2-c2ccccc2)c(=O)[nH]1

| assay / compound | 1 | 2 | 3 | 4 | 5 | 6 | 7 | 8 |
| --- | --- | --- | --- | --- | --- | --- | --- | --- |
| Giardia killer | 31.6 | 17.7 | 1.6 | -92.9* | 9.9 | x | -1.4 | -21.1 |
| Rango release inh | -1.4% | 13.4% | -13.0% | 21.1% | 16.8% | x | x | -4.4% |
| CCT modulator | -33.8* | -1.5 | -41.2* | 0.1 | -81.3* | -0.1 | x | -46.6* |
| Rango-impB inh | 3.7% | -1.6% | -0.9% | -1.8% | -0.9% | x | x | 1.1% |
| Mm-Cpn inhibitor | -0.2% | -1.9% | -3.9% | 0.8% | 0.9% | x | x | -0.4% |

9. COc1ccc(CNc2ncnc3nc[nH]c23)cc1OC
10. Cc1cc(C)c(C#N)c(Nc2cccc(C)c2C)n1
11. CCOC(=O)C1CCCN(C(=O)c2ccc(OC)cc2)CC1 (configuration not stated)
12. CCOC(=O)C1CCN(C(=O)c2ccc3nc(-c4ccc(OC)cc4)c(-c4ccc(OC)cc4)nc3c2)CC1
13. Cc1ccc(/C=C/C(=O)c2ccccc2O)cc1
14. Cc1ccc(/C=C/C(=O)C2C(=O)c3ccccc3C2=O)cc1
15. C/C(=N/N=C/c1ccccc1O)c1ccccc1O
16. Oc1ccccc1C=NN=C1c2ccccc2-c2ccccc21

| assay / compound | 9 | 10 | 11 | 12 | 13 | 14 | 15 | 16 |
| --- | --- | --- | --- | --- | --- | --- | --- | --- |
| Giardia killer | 15.4 | 11.8 | x | -3.0 | 10.5 | -86.0* | -7.2 | 5.2 |
| Rango release inh | x | 17.8% | x | 16.4µM* | 0.7% | -5.2% | u | 3.9% |
| CCT modulator | x | -43.7* | -0.8 | 1.5 | 0.8 | -2.5 | 1.6 | -0.9 |
| Rango-impB inh | x | -4.0% | x | u | -0.9% | 1.3% | 36.6µM* | 1.3% |
| Mm-Cpn inhibitor | x | -3.1% | x | -16.1% | 0.1% | 1.2% | -5.2% | x |

17. Cc1nc(NC(=S)NC(=O)c2ccccc2)sc1C
18. Cc1nc(NC(=O)c2ccccc2)sc1C
19. Cc1ccc(SCC(c2ccccc2)N2CCN(C)CCC2=O)cc1 (configuration not stated)
20. Cc1cccc(OCCn2c(CCNC(=O)C3CCCCC3)nc3ccccc32)c1
21. CCn1ncc(Br)c1C(=O)Nc1ccccc1OC
22. CCOC(=O)CSc1nc2cc3c(cc2cc1C#N)OCCO3
23. COc1ccccc1C1NC(c2ccc3c(c2)OCO3)=CC(c2ccccc2O)N1 (configuration not stated)
24. Cc1c(OC(C)C(=O)NCC2CCC(C(=O)O)CC2)ccc2c3c(c(=O)oc12)CCCC3 (configuration not stated)

| assay / compound | 17 | 18 | 19 | 20 | 21 | 22 | 23 | 24 |
| --- | --- | --- | --- | --- | --- | --- | --- | --- |
| Giardia killer | -27.9 | 1.4 | 2.6 | 18.1 | 3.9 | 6.4 | -10.8 | -16.8 |
| Rango release inh | -2.5% | -7.2% | x | x | 3.5% | -24.0% | x | -0.3% |
| CCT modulator | -33.3* | 0.0 | x | x | -35.4* | -39.1* | x | -36.7* |
| Rango-impB inh | 0.2% | -2.4% | x | x | -0.8% | u | x | 0.8% |
| Mm-Cpn inhibitor | 0.0% | 1.0% | x | x | 0.0% | -28.5% | x | 0.1% |

Looked up above:
Entry of CCOC(=O)CSc1nc2cc3c(cc2cc1C#N)OCCO3 under Giardia killer: 6.4
Entry of COc1ccccc1C1NC(c2ccc3c(c2)OCO3)=CC(c2ccccc2O)N1 (configuration not stated) under Giardia killer: -10.8

New compounds follow.
25. Fc1ccc(N2N=C(c3cccs3)CC2c2ccccc2)cc1 (configuration not stated)
26. CCc1ccc2occ(CC(=O)Nc3ccc(OC)c(Cl)c3)c2c1
27. O=S(=O)(Nc1cc(Br)cc2cccnc12)c1cccc2ccccc12
28. O=C(O)c1ccc2c(c1)C(=O)N([C@H](Cc1ccc(-c3ccccc3)cc1)C(=O)O)C2=O
29. CCC(=O)N1CCN=C1SCc1ccccc1Cl
30. CC(=O)N1CCN=C1SCc1ccccc1Cl
31. Cc1noc(C)c1COc1ccccc1C(=O)N1CCN(S(=O)(=O)c2cccc([N+](=O)[O-])c2)CC1
32. O=[N+]([O-])c1ccc(-c2cnc3ccccc3n2)cc1

| assay / compound | 25 | 26 | 27 | 28 | 29 | 30 | 31 | 32 |
| --- | --- | --- | --- | --- | --- | --- | --- | --- |
| Giardia killer | 8.6 | -4.1 | -6.1 | x | 15.1 | 16.6 | -9.8 | -4.4 |
| Rango release inh | 9.2µM*[inhibitor] | x | x | x | -12.9% | 14.6% | -2.6% | 4.0% |
| CCT modulator | 2.5 | x | x | x | -63.1* | 1.5 | -56.9* | -37.8* |
| Rango-impB inh | u | x | x | x | -5.9% | 0.6% | -0.1% | -0.6% |
| Mm-Cpn inhibitor | -2.1% | x | x | 2.6% | 0.2% | -0.9% | -0.5% | -0.7% |

33. CCCCC(=O)N1C/C=C\C(c2ccc(OC)cc2)N(Cc2ccc(F)cc2)C(=O)C1C (configuration not stated)
34. Cn1c2cc(Br)sc2c2cnn(Cc3ccc(F)cc3)c(=O)c21
35. O=C(CSc1nc2cc(Cl)ccc2o1)N1CCOCC1
36. O=C(CCSc1nc2cc(Cl)ccc2o1)N1CCOCC1
37. COc1cccc(-c2cnc3c(NC=O)cc(-c4ccc(OC)cc4OC)cn23)c1
38. CC(=O)Nc1cc(-c2cccc(C(=O)NCCN(C)C)c2)cn2c(-c3ccc(S(C)(=O)=O)cc3)cnc12
39. COc1cccc(-c2cnc3c(NC(C)=O)cc(-c4ccc(C(=O)NC5CC5)cc4)cn23)c1
40. COc1ccc(-c2cc(NC=O)c3ncc(-c4ccc(OC)c(OC)c4)n3c2)c(OC)c1

| assay / compound | 33 | 34 | 35 | 36 | 37 | 38 | 39 | 40 |
| --- | --- | --- | --- | --- | --- | --- | --- | --- |
| Giardia killer | 37.7 | x | -10.9 | -0.3 | x | x | x | x |
| Rango release inh | x | x | -2.7% | -5.5% | x | x | x | x |
| CCT modulator | x | x | -30.7* | 0.7 | -34.9* | -2.1 | -35.3* | -0.2 |
| Rango-impB inh | x | x | -0.6% | 0.7% | x | x | x | x |
| Mm-Cpn inhibitor | x | -3.4% | -1.5% | -0.4% | x | x | x | x |

2 consecutive compounds from above, for reference:
33. CCCCC(=O)N1C/C=C\C(c2ccc(OC)cc2)N(Cc2ccc(F)cc2)C(=O)C1C (configuration not stated)
34. Cn1c2cc(Br)sc2c2cnn(Cc3ccc(F)cc3)c(=O)c21

| assay / compound | 33 | 34 |
| --- | --- | --- |
| Giardia killer | 37.7 | x |
| Rango release inh | x | x |
| CCT modulator | x | x |
| Rango-impB inh | x | x |
| Mm-Cpn inhibitor | x | -3.4% |

(cont.)
41. CC(=O)Nc1cc(-c2cccc(C(=O)NCCN(C)C)c2)cn2c(-c3ccccc3)cnc12
42. Cc1cccc(CN2C(=O)N/C(=C/c3cc(C)n(-c4ccccn4)c3C)C2=O)c1
43. Cc1cc(/C=C2/NC(=O)N(Cc3ccccc3F)C2=O)c(C)n1-c1ccccn1
44. O=C(O)c1cn(-c2ccccc2)nc1-c1ccc(Cl)cc1
45. O=C(N/N=C\c1ccc(-c2ccc([N+](=O)[O-])cc2)o1)c1ccc2c(c1)OCO2
46. O=C(N/N=C/c1ccc([N+](=O)[O-])o1)c1ccc2c(c1)OCO2
47. O=C(N/N=C/c1ccc([N+](=O)[O-])o1)c1ccccc1-n1cccc1
48. CC(C)(C)c1ccc2c(c1)OC(C(=O)N/N=C/c1ccc([N+](=O)[O-])o1)CO2 (configuration not stated)
49. O=C(N/N=C/c1ccc([N+](=O)[O-])o1)c1cn(-c2ccccc2)nc1-c1ccc(Cl)cc1

| assay / compound | 41 | 42 | 43 | 44 | 45 | 46 | 47 | 48 | 49 |
| --- | --- | --- | --- | --- | --- | --- | --- | --- | --- |
| Giardia killer | x | u | -21.7 | -18.5 | 19.2 | -91.4* | -98.6* | -97.8* | -89.8* |
| Rango release inh | x | 5.17µM* | u | 18.2% | -19.9% | u | -6.1% | -1.9% | 18.6% |
| CCT modulator | -38.1* | -9.2 | 0.6 | -1.4 | -1.9 | -1.0 | -1.1 | -1.5 | -6.3 |
| Rango-impB inh | x | u | u | -1.3% | u | 3.1% | 1.3% | -0.2% | 0.5% |
| Mm-Cpn inhibitor | x | -1.4% | -2.2% | x | 2.5% | -1.9% | -2.4% | 0.2% | 3.3% |
